The values that follow come from patent US9006439B2, “Camptothecin derivatives having anti-tumor activity” (priority 2011, dated 2015).

In this data set the test system is U87, BX-PC3, HT-29, OV-3 and A549 cell lines. Nature of the data set: MTT in vitro cytotoxicity, five cell lines together (mean / overall). The conditions noted are these: A549, HT-29, OV-3, U87, BX-PC3. As to the method:
In vitro cytotoxicity was measured with MTT. Cell suspension was prepared using cells in good condition and seeded at 200 μl/well on a 96 well plate before culturing for 24 hours in a temperature-controlled CO2 incubator. The test drug was added at 20 μl/well and cultured for 48 hours. MTT was added to the 96 well plate at 20 ul/well and allowed to react for 4 hours in the incubator. The supernatant was removed and DMSO was added at 20 μl/well. Cytotoxicity was determined by the absorbance measured by Enzyme-linked immunosorbent assay at a wavelength of 570 nm.
As for “9-t-butyloxyethyloxime-10-hydroxy-camptothecin [CPT2]”, the “in vitro activity / cytotoxicity (in words)” value is recorded as “significant cytotoxicity”.

On to “9-t-butyloxyethyloxime-20-phenylalanine-carbonyloxy-camptothecin [CPT10]”, for which the “in vitro activity / cytotoxicity (in words)” value is “do not have significant activities in vitro”.

For the substance “9-methoxyethyloxime-10-[(4′-piperidinylpiperidinyl) carbonyloxy]-camptothecin [CPT5]”, the “in vitro activity / cytotoxicity (in words)” value is listed as “do not have significant activities in vitro”.

As for “9-phenylaminoethylhydrazone-10-[(4′-piperidinylpiperidinyl)carbonyloxy]-camptothecin [CPT6]”, the “in vitro activity / cytotoxicity (in words)” value is recorded as “do not have significant activities in vitro”.
